# Results: PubChem BioAssay AID720506 (National Center for Advancing Translational Sciences (NCATS), 2013)
# Chains of the proteins cited; added tags and fusions are not shown.
# UniProt P35462, whole entry, looked up: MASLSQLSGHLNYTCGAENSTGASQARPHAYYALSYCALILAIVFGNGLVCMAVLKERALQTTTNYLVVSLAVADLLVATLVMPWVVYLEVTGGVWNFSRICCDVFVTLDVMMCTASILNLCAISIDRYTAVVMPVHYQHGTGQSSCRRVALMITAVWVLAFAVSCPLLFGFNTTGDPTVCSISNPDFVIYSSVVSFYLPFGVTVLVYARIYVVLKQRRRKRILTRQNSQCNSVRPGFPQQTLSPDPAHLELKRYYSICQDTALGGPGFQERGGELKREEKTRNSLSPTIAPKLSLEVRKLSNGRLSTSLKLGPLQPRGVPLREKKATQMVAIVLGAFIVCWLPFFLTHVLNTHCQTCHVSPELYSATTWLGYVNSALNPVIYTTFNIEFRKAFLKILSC
# The list shows a part of the results, in another mix than the full data. Inconclusive results are not listed. Active and inactive are the calls of the source. Calls come from the whole dose curve; as a rule, active = well fitted activation curve with a large enough effect; inconclusive = small, poorly fitted or top-dose-only effect; inactive = flat fitted curve, though single readings scatter.
# Target: D(3) dopamine receptor (Homo sapiens) (UniProt P35462)
# Experiment: qHTS of D3 Dopamine Receptor Agonist: D3 Dopamine Receptor B-arrestin Agonist Confirmatory Assay;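 note: 100% = dopamine control response; nearly all actives have a fitted effect of over 70% in size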
# Conditions: DiscoveRx D3 beta-arrestin cells, luminescence, 90 min; at 76.9 µM (top of the series)
# Source text: D3 DARs represent a very important target for the treatment of several neuropsychiatric disorders. Indeed, one of the most promising therapeutic applications for the D3 DAR is in the area of addiction and related disorders. […] These findings have been observed with a number of addictive substances including cocaine, amphetamine, nicotine, and alcohol. […] Increased D3 DAR activity can thus lead to neuroprotective and neurorestorative actions in the CNS. […] This assay is used to confirm the activity of the identified D3 dopamine receptor agonist. Activation is the desired outcome for this assay. NIH Molecular Libraries Probe Production Centers Network [MLPCN] NIH Chemical Genomics Center [NCGC] MLPCN Grant: NS064831 Assay Submitter (PI): David Sibley
# Freshly passaged DiscoveRx D3 cells are plated in 1536 well white, solid bottom plates at a density of 1500 cells/well in 3microl of complete media. After an overnight incubation at 37 degrees C in 5% CO2, cells are loaded with 23nl of test compound from the compound library (as well as dopamine controls) using a 1536 pintool and incubated at 37 degrees C for 90 minutes. Two microliters of DiscoveRx reagent is then added to all cells, and they are incubated for an additional 30 - 60 minutes at room temperature. Following incubation, luminescence is measured on a ViewLux CCD-based luminometer reader using a 20 sec exposure time.
row,Compound,activation
1,Cc1c2c(nc3ccccc13)SC(C(Cl)Cl)C2 (configuration not stated),inactive: 3.45%
2,Cc1ccc2nc3c(c(C)c2c1)CC(C(Cl)Cl)S3 (configuration not stated),inactive: 6.68%
